Test results from patent publication US12667572B2, “Tricyclic compounds useful in the treatment of cancer, autoimmune and inflammatory disorders” (SCHRÖDINGER, INC., priority 2021, dated 2026).

By UniProt entry, the sequences of proteins in these tests, tags left out.
UniProt Q9UDY8, whole entry: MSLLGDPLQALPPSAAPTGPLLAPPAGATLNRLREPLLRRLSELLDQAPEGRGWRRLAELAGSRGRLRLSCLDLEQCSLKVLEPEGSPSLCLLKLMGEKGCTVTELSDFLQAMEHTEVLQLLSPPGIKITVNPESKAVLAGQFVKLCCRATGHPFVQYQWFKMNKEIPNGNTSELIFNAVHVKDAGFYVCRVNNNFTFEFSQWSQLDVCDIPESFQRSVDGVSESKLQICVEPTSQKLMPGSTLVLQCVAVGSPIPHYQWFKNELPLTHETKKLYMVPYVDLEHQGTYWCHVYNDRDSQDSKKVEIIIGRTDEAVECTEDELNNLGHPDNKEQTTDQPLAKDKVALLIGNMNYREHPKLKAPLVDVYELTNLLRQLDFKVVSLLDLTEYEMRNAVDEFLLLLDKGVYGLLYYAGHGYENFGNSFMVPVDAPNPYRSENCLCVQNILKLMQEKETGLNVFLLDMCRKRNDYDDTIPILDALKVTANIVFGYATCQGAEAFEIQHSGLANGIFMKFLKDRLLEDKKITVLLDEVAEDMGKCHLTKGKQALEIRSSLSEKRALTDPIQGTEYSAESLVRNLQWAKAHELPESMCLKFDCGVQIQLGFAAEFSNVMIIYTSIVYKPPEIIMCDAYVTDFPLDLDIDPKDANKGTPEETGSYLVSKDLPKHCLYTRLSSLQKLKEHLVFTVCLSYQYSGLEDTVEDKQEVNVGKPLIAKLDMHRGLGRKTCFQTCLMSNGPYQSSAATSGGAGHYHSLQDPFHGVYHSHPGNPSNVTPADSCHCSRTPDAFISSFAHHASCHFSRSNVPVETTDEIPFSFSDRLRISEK

Molecular target: full-length MALT1 protein His-MALT1(1-824) (Homo sapiens, UniProt Q9UDY8)
Assay: MALT1 protease assay, Assay 2 (1 nM MALT1, Ac-LRSR-AMC substrate)
Conditions: read-out: MALT1 IC50 [nM] Assay 2; 1 nM MALT1, 50 μM Ac-LRSR-AMC, 2 h pre-incubation, 8 hr incubation at RT
Experimental: MALT1 protease activity was assessed in an in vitro assay using a tetrapeptide as substrate and full-length MALT1 protein His-MALT1(1-824) purified from baculovirus-infected insect cells. The tetrapeptide substrate is Ac-LRSR-AMC (SM Biochemicals) with Km measured at around 100 μM.
The final assay buffer includes 1 nM (Assay 2) or 2 nM (Assay 1) of MALT1 full-length protein, 50 μM Ac-LRSR-AMC substrate, 50 mM Tris pH 7.5, 600 mM Sodium Citrate, 1 mM DTT, 1 mM EDTA, and 0.05% BSA in 384-well plate format using black microtiter square well plates (Optiplate 384-F, Perkin Elmer).
Test compounds were dissolved in 100% DMSO at stock of 10 mM, with final DMSO concentration 0.1%. Test compounds were pre-incubated with MALT1 protein for 2 h at room temperature. Substrate was added after the pre-incubation and fluorescence signal was measured using Envision at excitation 355 nm and emission 460 nm after 8 hr incubation at RT. Increase in the assay signal was linear over this period and proportional with increase in the enzyme content.
The fluorescence units were transformed to percentage of remaining activity by using the high control (HC, median of fluorescence signal from wells containing MALT1 protein, substrate, and DMSO) and low control (LC, median of fluorescence signal from wells with substrate only) with the formula below: […]

For `O=C(Nc1cnc(-n2nccn2)c(Cl)c1)C1CC2(CC2)c2c1cnc1cc(Cl)nn21` (single isomer, unassigned), the IC50 was 100 to 1000 nM.
